Source: patent US20040132095A1, “Method of selecting antimicrobial agent and method of using the same” (priority 2001, published 2004)

Assays:
[1] = system: red brown colored mold slime causing defects; assay: Sterilization/preservation treatment of filtrate line, paper machine Z (Example 10); conditions: intermittent introduction into the filtrate line after washing with NaOH
[2] = system: fungi isolated from the slime in the filtrate line (red brown mold, genus Sarcinomyces); assay: Effectiveness for fungi isolated from the slime in the filtrate line (Example 10)
Chaetomium elatum = assay: Data base search for antimicrobial agent, filamentous fungus (Example 6); format: cell-based; conditions: judged by (minimum effective concentration)×(price) under the environmental condition of the machine

O=C1SSC(Cl)C1Cl (stereo not drawn)
occurrence of defect on paper [1]: complete exclusion | effectiveness for the fungi isolated from the slime in the filtrate line [2]: at the most effective | effectiveness on the filamentous fungus (Chaetomium elatum): effectiveness
